Yeast mating assay B: variants of the scFv Ab-14

Antigen: PDVDLGDISGINAS, a 14-residue peptide of the SARS-CoV-2 spike HR2 region.

Parent scFv Ab-14: VH joined to VL by a 15-residue (Gly4Ser)3 linker. Changes lie in the light chain CDRs alone.
VH: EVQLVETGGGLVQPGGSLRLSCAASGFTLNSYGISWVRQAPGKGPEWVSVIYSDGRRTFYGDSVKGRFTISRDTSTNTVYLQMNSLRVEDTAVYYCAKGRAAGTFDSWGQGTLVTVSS
VL: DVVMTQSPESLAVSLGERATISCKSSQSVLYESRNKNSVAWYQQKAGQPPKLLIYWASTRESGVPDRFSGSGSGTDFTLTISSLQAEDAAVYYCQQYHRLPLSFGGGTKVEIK

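Phage display of a naive human antibody library on the peptide gave the parent. The variants were designed computationally from a first round of random CDR variants and then made and measured. Group labels follow the data file (Ctrl: baseline library sampled from a position-specific scoring matrix, with some repeated check sequences; GP: Gaussian process model; HC: hill climbing; Gen: genetic algorithm; Gibbs: Gibbs sampling; a sequence that several methods proposed may carry one label only). In AlphaSeq, yeast of one mating type display the scFv and yeast of the other type display the target. Pairs that bind mate more often; barcode pairs of the diploids are counted by sequencing. A regression on co-assayed BCL2-family reference pairs converts the normalised counts of each replicate to an apparent Kd. Mating was done six times.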

Positions count from residue 1 of the parent VL; S25F puts F in place of S.
Variants here have at most six changes.
Numbers give log10(Kd / nM), so 0 is 1 nM and 3 is 1 µM. Smaller is tighter.
A mean of the replicates is given; it leaves out those without a signal.
An entry "nd" has no value in the source: the pair was not observed among the diploids in that replicate. This suggests poor binding but is not conclusive.
The authors averaged sequences with at least three values out of six and counted those with two or fewer as poor binders.
A sequence measured in both rounds can read differently, since the two assays cover different ranges.
Of ten entries with the parent sequence, four were seen in most replicates (averages 0.34 to 2.37), three in one and three in none, so single entries are noisy.
As a blank, each scFv also met three strains without target: over all light chain designs, 4% of these pairings were detected, typically at 2.64 and seldom below 1.59.

- S25F/E32Q/W56D [GP_HC]: -0.28, -0.54, -0.57, -0.64, -0.77, -0.46 (mean -0.54)
- L30W/S33M/S103A [Ctrl]: nd, nd, 2.37, 0.97, 2.03, 1.99 (mean 1.84)
- S25V/Q27V/V29Y/Y31L/W56E [GP_HC]: 0.33, 0.26, 0.37, 0.49, 0.49, 0.67 (mean 0.43)
- Q27I/V29Y/K36F/W56E/S62E [GP_HC]: 0.34, 0.27, 0.22, -0.01, 0.16, 0.51 (mean 0.25)
- K24Y/Q27D/Q96T [Ctrl]: nd, nd, nd, 2.04, nd, nd
- S26N/K36E/S103A [Ctrl]: 2.74, nd, 2.89, 2.47, nd, 3.08 (mean 2.79)
- S25W/S28G/L30M/Y31G/W56D/H98E [GP_Gibbs]: 0.07, 0.32, 0.00, -0.06, 0.13, 0.54 (mean 0.17)
- Q27I/V29N/W56E/S62Q [GP_HC]: 0.41, 0.15, 0.10, -0.01, 0.06, 0.14 (mean 0.14)
- S28M/V29D/K36G/W56D/E61M/S62D [GP_Gibbs]: 0.02, -0.11, -0.30, -0.27, -0.14, 0.20 (mean -0.10)
- L30A/Y31P/K36A/W56D [GP_HC]: 0.37, 0.34, 0.38, 0.07, 0.24, 0.39 (mean 0.30)
- S25L/V29W/W56G/E61L [GP_Gen]: 0.55, 0.45, 0.31, 0.45, 0.34, 0.53 (mean 0.44)
- S25L/V29E/N35M/W56G [GP_Gen]: 0.25, 0.14, 0.04, -0.01, 0.21, 0.26 (mean 0.15)
- S28K/S62L [Ctrl]: nd, nd, 1.78, nd, nd, nd
- S25M/S26E/S28G/V29T/W56G/T59V [GP_HC]: -0.23, 0.08, -0.39, -0.08, -0.18, -0.15 (mean -0.16)
- V29Q/S103L [Ctrl]: nd, 1.95, nd, 1.74, nd, 2.94 (mean 2.21)
- S26P/E61P [Ctrl]: nd, 1.26, 2.53, 1.25, 1.87, nd (mean 1.73)
- Q27Y/V29Y/W56E/S103M [GP_HC]: 0.20, -0.06, 0.19, -0.23, 0.04, 0.33 (mean 0.08)
- S25L/V29W/K36A/W56N/T59Q [GP_Gen]: 0.13, 0.16, 0.10, 0.27, 0.08, 0.28 (mean 0.17)
- S25F/V29E/W56N/T59Q [GP_Gen]: -0.17, -0.16, -0.09, -0.44, -0.56, -0.33 (mean -0.29)
- S25V/S26E/V29D/W56N [GP_Gen]: -0.18, -0.37, -0.37, -0.39, -0.29, -0.17 (mean -0.30)
- W56A/L100W [Ctrl]: nd, 3.32, nd, nd, 3.70, nd (mean 3.51)
- S25L/N35V/W56D [GP_Gen]: -0.39, -0.45, -0.50, -0.58, -0.52, -0.58 (mean -0.50)
- S25L/V29C/W56E/Q96D [GP_Gen]: 0.23, -0.10, -0.07, -0.13, 0.22, 0.10 (mean 0.04)
- K24C/W56G/E61F/S103P [Ctrl]: nd, nd, nd, nd, nd, nd
- S25V/S26L/L30H/S33G/W56H/S62D [GP_HC]: 0.81, 0.58, 0.90, 1.22, 1.02, 0.71 (mean 0.87)
- S25L/S26Y/W56N/T59Q [GP_Gen]: -0.23, -0.76, -0.60, -0.52, -0.52, -0.45 (mean -0.51)
- S33R/L102V [Ctrl]: nd, nd, nd, nd, nd, nd
- V29E/L30P/W56N/T59Q/E61Y/S62Q [GP_Gibbs]: 2.36, 0.33, 0.03, 0.85, 0.75, 0.82 (mean 0.86)
- S25I/S26Q/R34L/W56E/E61L [GP_Gibbs]: 0.89, 0.42, 0.69, 0.47, 0.48, 0.95 (mean 0.65)
- K24H/S25A/Q27P/W56N/S103Q [GP_HC]: 0.52, 0.22, 0.30, 0.15, 0.42, 0.28 (mean 0.31)
- K24H/Q27P/W56N/S62T/S103Q [GP_HC]: 0.37, 0.20, 0.50, 0.03, 0.36, 0.38 (mean 0.31)
- S25L/S26L/W56H/S62D/L102M [GP_HC]: 0.34, 0.39, 0.12, 0.04, 0.11, 0.26 (mean 0.21)
- S58W/S62E [Ctrl]: nd, 2.62, nd, nd, nd, nd
- Q27I/V29F/K36E/W56E/S62Q [GP_HC]: 1.15, 0.60, 1.58, 0.53, 0.88, 1.14 (mean 0.98)
- Q27D/L30K/Y31F/W56D [GP_HC]: 0.41, 0.34, 0.01, 0.15, 0.29, 0.62 (mean 0.30)
- S25I/Y31G/S33W/W56D [GP_HC]: 0.41, 0.03, -0.03, 0.25, 0.20, 0.39 (mean 0.21)
- S25L/V29W/N35M/W56N/T59Q/S62Q [GP_Gen]: 0.15, 0.06, -0.04, -0.02, 0.11, 0.17 (mean 0.07)
- V29C/W56A [Ctrl]: nd, 0.66, 1.65, 1.29, 0.88, 1.41 (mean 1.18)
- S26K/H98M [Ctrl]: 1.80, nd, nd, 2.79, nd, nd (mean 2.29)
- W56G/T59C/H98D/R99S [Ctrl]: 2.42, 2.19, 1.61, 2.30, 1.81, 2.49 (mean 2.14)
- S26K/S28G/V29W/W56G/S62D [GP_HC]: -0.22, -0.31, -0.36, -0.47, -0.30, -0.20 (mean -0.31)
- K36D/S62A [Ctrl]: nd, 1.39, 1.36, 0.80, 0.94, 2.20 (mean 1.34)
- S25V/V29E/L30P/W56N [GP_Gen]: -0.04, -0.07, -0.18, -0.40, -0.16, -0.05 (mean -0.15)

Source: Li et al. 2023 (doi:10.1038/s41467-023-39022-2), MIT Lincoln Laboratory and A-Alpha Bio; data file from the FLAb repository.